Test results: PMC11365428, “Two C-terminal isoforms of Aplysia tachykinin–related peptide receptors exhibit phosphorylation-dependent and phosphorylation-independent desensitization mechanisms” (The Journal of Biological Chemistry, 2024)

Target: T1, apTKRPR-B (Aplysia californica, UniProt A0AAU7STS1)
T1 sequence (A0AAU7STS1 1-447): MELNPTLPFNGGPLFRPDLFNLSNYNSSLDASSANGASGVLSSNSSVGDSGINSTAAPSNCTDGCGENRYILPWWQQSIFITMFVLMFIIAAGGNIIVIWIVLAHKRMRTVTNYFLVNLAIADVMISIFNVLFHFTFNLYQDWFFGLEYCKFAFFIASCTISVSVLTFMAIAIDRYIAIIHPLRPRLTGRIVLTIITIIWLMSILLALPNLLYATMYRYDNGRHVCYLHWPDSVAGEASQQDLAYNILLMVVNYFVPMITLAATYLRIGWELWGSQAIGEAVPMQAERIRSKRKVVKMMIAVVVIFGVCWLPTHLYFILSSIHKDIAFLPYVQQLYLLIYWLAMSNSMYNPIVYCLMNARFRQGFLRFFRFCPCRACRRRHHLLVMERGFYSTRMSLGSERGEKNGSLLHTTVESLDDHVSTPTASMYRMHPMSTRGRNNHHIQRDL
Test: IP1 accumulation assay, CHO-K1 cells transiently expressing apTKRPR-B
Type: cell-based
Protocol: To express putative Aplysia receptors transiently in CHO-K1 cells, the cDNAs were subcloned into the pcDNA3.1(+) or pcDNA3.1(+)-FLAG (for ELISA experiments only, see “Cell surface expression analysis by ELISA” section) expression vector. On the day before transfection, the CHO-K1 cells were passaged into 60 mm diameter tissue culture–treated dishes, and the transfection experiments were performed when the cells were grown to 70 to 90% confluence. CHO-K1 cells were transfected with the cDNA plasmid constructs using Turbofect Transfection reagent (Thermo Fisher Scientific, R0531), following the manufacturer’s instructions. […] The DNA/TurboFect mixture dropwise was then added to the dish, and the cells were incubated at 37 °C in a humidified incubator containing 5% CO2 overnight.
On the third day, the activation of the putative receptors was detected by monitoring intracellular IP1 concentration using an IP-One Gq kit (Cisbio, 62IPAPEB) in Tecan Spark. Except for using 0.5x reagent, all other procedures were performed following the manufacturer’s instructions. IP1 accumulation assay measures the accumulation of IP1, which is hydrolyzed from the second messenger, and inositol triphosphate. Inositol triphosphate is generated by the Gαq pathway when a GPCR is activated by an appropriate ligand.

EC50: 234 nM
Compound: CC(C)C[C@H](NC(=O)[C@H](Cc1c[nH]cn1)NC(=O)[C@@H]1CCCN1C(=O)[C@@H]1CCC(=O)N1)C(=O)NCC(=O)N[C@@H](Cc1ccccc1)C(=O)N[C@@H](C)C(=O)NCC(=O)N[C@@H](CO)C(=O)N[C@@H](CCCNC(=N)N)C(N)=O [[Ala^7]apTKRP-2b]
